Values of other authors as cited in PubChem BioAssay AID1811 (Shanghai Institute of Organic Chemistry, 2009).
The other results are listed elsewhere or left out. Active and inactive are the calls of the source. Where no limit is named, active and inactive come without a cut-off here.

Test system: acetylcholinesterase
Test: PubChem AID 1811
Conditions: PDB complex binding affinities from literature

| SMILES | outcome |
| --- | --- |
| c1ccc2c(NCCCCCNc3c4c(nc5ccccc35)CCCC4)c3c(nc2c1)CCCC3 | active |
| COc1ccc2c3c1O[C@H]1C[C@@H](O)C=C[C@@]31CC[N+](CCCCCCCCN1C(=O)c3ccccc3C1=O)=C2 | active |
| O=c1ccc2c([nH]1)CCC[C@@H]2NCCCCCCCCCCCCN[C@H]1CCCc2[nH]c(=O)ccc21 | active |
